Measurements published in ChEMBL document CHEMBL1140305, “Three-dimensional quantitative structure-activity relationship analyses of beta-lactam antibiotics and tripeptides as substrates of the mammalian H+/peptide cotransporter PEPT1” (J Med Chem, 2005).

Biological target: T1, Solute carrier family 15 member 1 (Homo sapiens, UniProt P46059)
T1 sequence (P46059 whole entry): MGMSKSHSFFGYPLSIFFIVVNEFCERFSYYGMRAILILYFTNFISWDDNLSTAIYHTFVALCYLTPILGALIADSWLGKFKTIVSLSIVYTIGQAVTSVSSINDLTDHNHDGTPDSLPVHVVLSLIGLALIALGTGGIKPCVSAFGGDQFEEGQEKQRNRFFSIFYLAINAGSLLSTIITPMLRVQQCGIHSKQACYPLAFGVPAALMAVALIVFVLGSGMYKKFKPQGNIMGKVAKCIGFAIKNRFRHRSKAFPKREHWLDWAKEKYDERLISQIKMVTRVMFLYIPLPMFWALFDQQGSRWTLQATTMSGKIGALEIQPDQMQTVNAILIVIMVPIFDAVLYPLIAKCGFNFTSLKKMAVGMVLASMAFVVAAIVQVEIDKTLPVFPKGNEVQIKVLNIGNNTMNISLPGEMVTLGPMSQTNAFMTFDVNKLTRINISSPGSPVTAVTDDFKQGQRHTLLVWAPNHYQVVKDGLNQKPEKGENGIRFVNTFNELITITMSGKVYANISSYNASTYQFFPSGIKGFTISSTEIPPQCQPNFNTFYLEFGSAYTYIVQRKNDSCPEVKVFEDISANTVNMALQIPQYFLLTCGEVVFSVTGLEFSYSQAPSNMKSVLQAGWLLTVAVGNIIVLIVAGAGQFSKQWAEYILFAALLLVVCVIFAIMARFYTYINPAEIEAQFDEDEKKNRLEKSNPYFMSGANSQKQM
Assay: Binding affinity against membrane transport protein PEPT1 in human Caco-2 cells
Assay type: cell-based

Structure (SMILES) | Ki [µM]
CC(C)[C@H](N)C(=O)N1CCC[C@H]1C(=O)N1CCC[C@H]1C(=O)O | 100
C[C@H](N)C(=O)N[C@@H](Cc1ccccc1)C(=O)N1CCC[C@H]1C(=O)O | 110
CC[C@H](C)[C@H](N)C(=O)N1CCC[C@H]1C(=O)N1CCC[C@H]1C(=O)O | 280
CC[C@H](C)[C@H](NC(=O)[C@@H]1CCCN1C(=O)[C@@H](N)CO)C(=O)O | 170
